# Values quoted from earlier work in patent publication US8633313B2, “Heterocyclic compounds and their uses” (Amgen Inc., priority 2009, dated 2014).
# Amino acid sequences for entries named in this document (tags omitted).
# UniProt P42338, whole entry, species assumed: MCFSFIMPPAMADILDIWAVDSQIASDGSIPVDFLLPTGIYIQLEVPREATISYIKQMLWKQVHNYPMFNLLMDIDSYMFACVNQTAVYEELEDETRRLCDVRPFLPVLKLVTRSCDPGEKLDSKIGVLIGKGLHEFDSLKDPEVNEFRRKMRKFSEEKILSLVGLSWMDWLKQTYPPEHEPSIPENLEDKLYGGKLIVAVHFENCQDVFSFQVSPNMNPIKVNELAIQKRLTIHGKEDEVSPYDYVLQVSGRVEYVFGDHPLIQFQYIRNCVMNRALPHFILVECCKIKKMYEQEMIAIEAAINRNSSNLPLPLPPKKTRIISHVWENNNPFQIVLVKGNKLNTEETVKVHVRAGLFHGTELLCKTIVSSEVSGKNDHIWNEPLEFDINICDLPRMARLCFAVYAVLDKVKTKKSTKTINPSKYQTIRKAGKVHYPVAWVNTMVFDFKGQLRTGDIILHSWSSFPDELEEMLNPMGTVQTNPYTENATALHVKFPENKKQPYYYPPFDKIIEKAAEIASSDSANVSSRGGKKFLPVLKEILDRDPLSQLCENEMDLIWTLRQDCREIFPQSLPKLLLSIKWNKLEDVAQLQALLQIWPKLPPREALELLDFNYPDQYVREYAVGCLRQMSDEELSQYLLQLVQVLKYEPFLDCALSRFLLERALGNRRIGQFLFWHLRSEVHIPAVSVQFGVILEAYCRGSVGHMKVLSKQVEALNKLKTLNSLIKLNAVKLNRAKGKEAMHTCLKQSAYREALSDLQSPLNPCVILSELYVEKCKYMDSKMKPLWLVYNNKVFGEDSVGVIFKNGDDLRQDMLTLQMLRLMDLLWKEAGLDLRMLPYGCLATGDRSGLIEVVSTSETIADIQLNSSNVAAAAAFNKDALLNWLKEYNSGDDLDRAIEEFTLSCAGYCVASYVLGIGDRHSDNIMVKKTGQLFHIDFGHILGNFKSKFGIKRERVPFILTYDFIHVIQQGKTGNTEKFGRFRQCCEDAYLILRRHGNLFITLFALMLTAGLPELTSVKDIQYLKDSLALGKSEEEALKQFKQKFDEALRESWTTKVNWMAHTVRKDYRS
# Target: p110β (Homo sapiens, UniProt P42338)
# Conditions: read-out: potency on beta; cited from earlier work
smiles,measurement,value
Cc1cc(C(C)Nc2ccccc2)c2nc(N3CCOCC3)cc(=O)n2c1 (stereo not shown) [TGX-221],IC50,7 nM
